We go through three molecules from patent US20220389009A1, “SUBSTITUTED 1,6-NAPHTHYRIDINE INHIBITORS OF CDK5” (Goldfinch Bio, Inc., priority 2019, published 2022).

Protein sequences, listed by entry. Tags and fused reporters are not part of them. Residues count along the entry.
UniProt Q00535, whole entry: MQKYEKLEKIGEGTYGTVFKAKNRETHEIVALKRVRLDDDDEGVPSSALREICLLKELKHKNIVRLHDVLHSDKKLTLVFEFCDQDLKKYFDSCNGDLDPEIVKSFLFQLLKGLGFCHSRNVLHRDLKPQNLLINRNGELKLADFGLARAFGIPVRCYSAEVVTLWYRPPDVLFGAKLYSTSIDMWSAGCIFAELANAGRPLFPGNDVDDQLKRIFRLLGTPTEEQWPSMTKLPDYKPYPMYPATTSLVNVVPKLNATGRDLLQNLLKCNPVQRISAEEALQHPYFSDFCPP
UniProt Q15078, 99-307 partner limits assumed: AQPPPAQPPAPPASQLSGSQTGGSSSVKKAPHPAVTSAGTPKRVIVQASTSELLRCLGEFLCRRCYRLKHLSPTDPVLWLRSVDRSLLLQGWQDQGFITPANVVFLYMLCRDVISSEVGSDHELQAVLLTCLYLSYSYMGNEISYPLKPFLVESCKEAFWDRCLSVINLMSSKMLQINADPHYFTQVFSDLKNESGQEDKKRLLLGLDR

The target of one test is CDK5/p25 (Homo sapiens, UniProt Q00535). Nature of the test: CDK5 mobility shift assay (enzymatic activity of CDK5/p25). Particulars: for CDK5/CDK2 specificity: fold more active against CDK5 than CDK2; for IC50: read-out: CDK5 IC50, 0.154 nM CDK5/p25, FL peptide 29, 60 min at room temperature.
The target in the next test is CDK2/CycA2 (Homo sapiens, UniProt P24941). Nature of the test: CDK2 mobility shift assay (enzymatic activity of CDK2/CycA2). Conditions: read-out: CDK2 IC50; 1.25 nM CDK2/CycA2, 37 μM ATP, FL Peptide 18, 120 min at room temperature.

Bounds are passed on as bounds.

Broadly, the IC50 is the concentration that inhibits the measured activity by half. As to `N[C@H]1CC[C@@H](S(=O)(=O)c2ccc3cnc(Nc4ccc(-n5cccn5)cc4F)cc3n2)CC1`, on CDK5/p25, the CDK5/CDK2 specificity entry was “++ (greater than 10-fold and less than or equal to 100-fold more active against CDK5 than CDK2)”; the IC50 was under 10 nM. In addition, at CDK2/CycA2, the IC50 was in the range of 100 to 1000 nM.
For the molecule `C[C@@H]1CN(C)CC[C@H]1S(=O)(=O)c1ccc2cnc(Nc3ccc(-n4ccc(CO)n4)cc3F)cc2n1`, on CDK5/p25, the CDK5/CDK2 specificity entry is “++ (greater than 10-fold and less than or equal to 100-fold more active against CDK5 than CDK2)”; the IC50 was 10 to 100 nM. The concentration for half-maximal inhibition (IC50) on CDK2/CycA2 is over 1000 nM.
For the molecule `COc1nccc(-c2ccc(Nc3cc4nc(C(C)(O)C5CCN(C)CC5)ccc4cn3)cc2)n1` (stereo not drawn), on CDK5/p25, the CDK5/CDK2 specificity entry was “++ (greater than 10-fold and less than or equal to 100-fold more active against CDK5 than CDK2)”; the IC50 was under 10 nM. On CDK2/CycA2, the IC50 fell in the range of 10 to 100 nM.
